Measured values reported in patent US8518466B2 (Shenzhen Hazardous Waste Treatment Station Ltd., priority 2008, dated 2013).

Tested on: weaned piglet
Details: in vivo

## selenium covered basic copper chloride
  copper content in liver among groups: almost the same
0.3 mg/kg
  selenium content in liver, higher than the groups added with 0.3 mg/kg of sodium selenite: 9%
